SMILES strings stand for the structures.

Sequences of proteins named here, by UniProt entry; tags and fusion partners are left off.
UniProt P37231, whole entry: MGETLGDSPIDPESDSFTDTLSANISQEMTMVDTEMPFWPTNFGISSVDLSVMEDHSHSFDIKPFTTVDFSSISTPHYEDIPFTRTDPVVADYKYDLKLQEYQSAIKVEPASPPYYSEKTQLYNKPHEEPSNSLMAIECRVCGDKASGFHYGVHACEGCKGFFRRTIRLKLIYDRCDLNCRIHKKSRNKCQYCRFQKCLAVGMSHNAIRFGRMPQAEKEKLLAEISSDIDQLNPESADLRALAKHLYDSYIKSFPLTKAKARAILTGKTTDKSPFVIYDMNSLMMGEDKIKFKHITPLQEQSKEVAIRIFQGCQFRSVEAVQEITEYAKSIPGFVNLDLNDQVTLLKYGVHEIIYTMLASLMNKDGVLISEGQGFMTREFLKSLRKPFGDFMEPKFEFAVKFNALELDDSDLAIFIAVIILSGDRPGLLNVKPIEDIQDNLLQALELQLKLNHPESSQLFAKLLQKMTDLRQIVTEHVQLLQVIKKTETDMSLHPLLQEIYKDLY

The experiment addresses PPARγ (Homo sapiens, UniProt P37231). Description: PPARγ ligand binding assay utilizing [3H]-BRL 49653 as the radioligand (filtration). The note with it: read-out: PPARγ Binding IC50 Filtration; concentration required to reduce by 50% the specific binding of [3H]-BRL 49653. In a few lines:
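Displacement of 10 nM [3H]-BRL 49653 from PPARγ-GST fusion protein in Tris-HCl pH 8.0 buffer with KCl, DTT, BSA and NP-40, 15 min incubation, then glutathione-bead capture for 1 h. Bound radioactivity counted after filtration washes; IC50 is concentration giving 50% loss of specific binding, reported in ranges.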
For the molecule `Cc1cc(Oc2c(Cl)cc(NS(=O)(=O)c3ccc(C(F)(F)F)cc3Cl)cc2Cl)ccc1S(=O)(=O)N1CCC(C)CC1`, the IC50 was under 1000 nM.
Regarding `CC(=O)c1cc(NS(=O)(=O)c2ccc(F)cc2Cl)cc(Cl)c1Oc1ccc(S(=O)(=O)N2CCOCC2)cc1`, the IC50 is under 1000 nM.
Turning to `CCN(CC)S(=O)(=O)c1ccc(Oc2ccc(NS(=O)(=O)c3ccc(Cl)cc3)cc2C)cc1`, the IC50 was under 30000 nM.
Consider `O=S(=O)(Nc1cc(Cl)c([S+]([O-])c2ccc(S(=O)(=O)N3CCCCC3)cc2)c(Cl)c1)c1ccc(C(F)(F)F)cc1Cl` (centres unmarked), for which the IC50 is under 1000 nM.
In the case of `O=S(=O)(Nc1cc(Cl)c(Sc2ccc(S(=O)(=O)N3CCCCC3)cc2)c(Cl)c1)c1ccc(C(F)(F)F)cc1Cl`, the IC50 is under 1000 nM.
For `CC(=O)c1cc(NS(=O)(=O)c2cc(Cl)ccc2Cl)cc(Cl)c1Oc1ccc(S(=O)(=O)N2CCOCC2)cc1`, the IC50 was under 1000 nM.
As to `O=S(=O)(Nc1cc(Cl)c(Oc2ccc(S(=O)(=O)N3CCOCC3)cc2)c(Cl)c1)c1ccc(C(F)(F)F)cc1Cl`, the IC50 was under 1000 nM.
In the case of `CCN(CC)S(=O)(=O)c1ccc(Oc2c(C)cc(NS(=O)(=O)c3ccc(C(F)(F)F)cc3Cl)cc2C(C)=O)cc1C`, the IC50 was under 1000 nM.
Consider `O=S(=O)(Nc1cc(Cl)c(Sc2ccc(S(=O)(=O)N3CCOCC3)cn2)c(Cl)c1)c1ccc(C(F)(F)F)cc1Cl`, for which the IC50 was under 1000 nM.
On to `Cc1cc(NS(=O)(=O)c2ccc(C(F)(F)F)cc2Cl)cc(C(C)O)c1Oc1ccc(S(=O)(=O)N2CCCCC2)cc1` (centres unmarked), for which the IC50 was under 1000 nM.
Consider `CC(C)CC(=O)c1cc(NS(=O)(=O)c2ccc(Cl)cc2Cl)nnc1Sc1ccc(S(=O)(=O)N2CCCCC2)cc1`, for which the IC50 was under 10000 nM.
Take `CC(=O)c1cc(NS(=O)(=O)c2c(C)cc(Cl)cc2Cl)cc(Cl)c1Oc1ccc(S(=O)(=O)N2CCOCC2)cc1`: the IC50 was under 1000 nM.
In the case of `CCN(CC)S(=O)(=O)c1ccc(Oc2c(C)cc(NS(=O)(=O)c3ccc(C(F)(F)F)cc3Cl)cc2Cl)cc1`, the IC50 was under 10000 nM.
As to `O=S(=O)(Nc1cc(Cl)c([S+]([O-])c2ccc(S(=O)(=O)N3CCOCC3)cc2)c(Cl)c1)c1ccc(C(F)(F)F)cc1Cl` (centres unmarked), the IC50 was under 1000 nM.
For the molecule `CCOC(=O)c1cc(NS(=O)(=O)c2ccc(C(F)(F)F)cc2Cl)ccc1Oc1ccc(S(=O)(=O)N2CCOCC2)c(C)c1`, the IC50 was under 30000 nM.
For `CCNC(=O)c1cc(NS(=O)(=O)c2ccc(C(F)(F)F)cc2Cl)ccc1Oc1ccc(S(=O)(=O)N2CCCC2)c(C)c1`, the IC50 is under 1000 nM.
As for `CCC(=O)c1cc(NS(=O)(=O)c2ccc(Cl)cc2Cl)ccc1Oc1ccc(S(=O)(=O)N2CCCCC2)cc1`, the IC50 was under 1000 nM.
For `CC(=O)c1cc(NS(=O)(=O)c2ccccc2Cl)cc(Cl)c1Oc1ccc(S(=O)(=O)N2CCOCC2)cc1`, the IC50 was under 10000 nM.
As for `O=S(=O)(Nc1cc(Cl)c([S+]([O-])c2ccc(S(=O)(=O)N3CCCC3)cc2)c(Cl)c1)c1ccc(C(F)(F)F)cc1Cl` (centres unmarked), the figure is under 1000 nM.
Take `CC(=O)c1cc(NS(=O)(=O)c2ccc(C)cc2)cc(Cl)c1Oc1ccc(S(=O)(=O)N2CCOCC2)cc1`: the IC50 is under 10000 nM.
As for `Cc1cc(NS(=O)(=O)c2ccc(C(F)(F)F)cc2Cl)cc(C(=O)NC(C)C)c1Oc1ccc(S(=O)(=O)N2CCOCC2)cc1`, the figure is under 1000 nM; as for `CCOC(=O)c1cc(NS(=O)(=O)c2ccc(C(F)(F)F)cc2Cl)ccc1Oc1ccc(S(=O)(=O)N(CC)CC)c(C)c1`, under 1000 nM; as for `CCN(CC)S(=O)(=O)c1ccc(Oc2c(Cl)cc(NS(=O)(=O)c3cc(C)c(Cl)cc3Cl)cc2Cl)cc1`, under 1000 nM.
As for `Cc1cc(Oc2ccc(NS(=O)(=O)c3ccc(Cl)cc3Cl)cc2C(=O)NC(C)C)ccc1S(=O)(=O)N1CCCC1`, the IC50 was under 1000 nM.
Turning to `CC(C)CC(=O)c1cc(NS(=O)(=O)c2ccc(C(F)(F)F)cc2Cl)ccc1Oc1ccc(S(=O)(=O)N2CCCCC2)cc1`, the IC50 is under 1000 nM.
As for `CC(=O)c1cc(NS(=O)(=O)c2ccc(C(F)(F)F)cc2Cl)ccc1Oc1ccc(S(=O)(=O)N2CCCC2)c(C)c1`, the figure is under 1000 nM.
Regarding `CC(=O)c1cc(NS(=O)(=O)c2ccc(F)cc2C(F)(F)F)cc(Cl)c1Oc1ccc(S(=O)(=O)N2CCOCC2)cc1`, the IC50 is under 10000 nM.
Regarding `Cc1cc(NS(=O)(=O)c2ccc(Cl)cc2Cl)ccc1Oc1ccc(S(=O)(=O)N2CCOCC2)cc1`, the IC50 is under 1000 nM.
Consider `O=C(O)CS(=O)(=O)c1ccc(Sc2c(Cl)cc(NS(=O)(=O)c3ccc(C(F)(F)F)cc3Cl)cc2Cl)cc1`, for which the IC50 is under 1000 nM.
Take `O=C(c1cc(NS(=O)(=O)c2ccc(Cl)cc2Cl)ccc1Oc1ccc(S(=O)(=O)N2CCOCC2)cc1)C1CC1`: the IC50 is under 1000 nM.
In the case of `CCC(C)NC(=O)c1cc(NS(=O)(=O)c2cc(C)c(Cl)cc2Cl)ccc1Oc1ccc(S(=O)(=O)N2CCCCC2)c(C)c1` (centres unmarked), the IC50 was under 1000 nM.
`O=C(O)CCCS(=O)(=O)c1ccc(Sc2c(Cl)cc(NS(=O)(=O)c3ccc(C(F)(F)F)cc3Cl)cc2Cl)cc1`: the IC50 is under 1000 nM.
As for `CC(=O)c1cc(NS(=O)(=O)c2ccc(Cl)c(Cl)c2Cl)cc(Cl)c1Oc1ccc(S(=O)(=O)N2CCOCC2)cc1`, the figure is under 1000 nM.
As for `CCCCC(=O)c1cc(NS(=O)(=O)c2cc(C)c(Cl)cc2Cl)ccc1Oc1ccc(S(=O)(=O)N2CCCCC2)cc1`, the IC50 is under 1000 nM.
Take `Cc1cc(S(=O)(=O)Nc2ccc(Oc3ccc(S(=O)(=O)N4CCCCC4)cc3)c(C(=O)CC(C)C)c2)c(Cl)cc1Cl`: the IC50 is under 1000 nM.
Take `CCN(CC)S(=O)(=O)c1ccc(Oc2ccc(NS(=O)(=O)c3ccc(Cl)cc3Cl)cc2Cl)cc1`: the IC50 was under 1000 nM.
As for `CCCN(CC)S(=O)(=O)c1ccc(Oc2c(Cl)cc(NS(=O)(=O)c3ccc(C(F)(F)F)cc3Cl)cc2Cl)cc1`, the IC50 is under 1000 nM.
Turning to `CCN(C(C)C)S(=O)(=O)c1ccc(Oc2c(Cl)cc(NS(=O)(=O)c3ccc(C(F)(F)F)cc3Cl)cc2Cl)cc1`, the IC50 is under 1000 nM.
As to `O=C(c1cc(NS(=O)(=O)c2ccc(C(F)(F)F)cc2Cl)ccc1Oc1ccc(S(=O)(=O)N2CCCCC2)cc1)C1CCCCC1`, the IC50 was under 1000 nM.
Turning to `CC(=O)c1cc(NS(=O)(=O)c2ccc(Cl)cc2Cl)ccc1Oc1ccc(S(=O)(=O)N2CCCCC2)cc1`, the IC50 was under 1000 nM.
Consider `CC(=O)c1cc(NS(=O)(=O)c2cc(F)ccc2C)cc(Cl)c1Oc1ccc(S(=O)(=O)N2CCOCC2)cc1`, for which the IC50 was under 10000 nM.
`CCCC(=O)c1nc(NS(=O)(=O)c2ccc(Cl)cc2Cl)ccc1Sc1ccc(S(=O)(=O)N2CCCCC2)cc1` [Compound 73, N-{6-Butyryl-5-[4-(piperidine-1-sulfonyl)-phenylsulfanyl]-pyridin-2-yl}-2,4-dichloro-benzenesulfonamide]: the IC50 was under 1000 nM.
The figure for `NC(=O)c1cc(NS(=O)(=O)c2ccc(Cl)cc2Cl)cc(Cl)c1Oc1ccc(S(=O)(=O)N2CCOCC2)cc1` is under 10000 nM.
Consider `CCN(CC)S(=O)(=O)c1ccc(Oc2c(C)cc(NS(=O)(=O)c3cc(C)c(Cl)cc3C)cc2Cl)cc1`, for which the IC50 was under 10000 nM.
